scFv variants of Ab-14 (light chain) against a SARS-CoV-2 spike peptide

Antigen: PDVDLGDISGINAS, a 14-residue peptide of the SARS-CoV-2 spike HR2 region.

Parent: Ab-14, a human scFv built as VH, a (GGGGS)3 linker, VL. Only the CDRs of the light chain vary.
VH: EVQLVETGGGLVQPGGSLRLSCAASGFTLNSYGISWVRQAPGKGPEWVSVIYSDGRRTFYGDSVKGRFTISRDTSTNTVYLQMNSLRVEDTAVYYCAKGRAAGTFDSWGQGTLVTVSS
VL: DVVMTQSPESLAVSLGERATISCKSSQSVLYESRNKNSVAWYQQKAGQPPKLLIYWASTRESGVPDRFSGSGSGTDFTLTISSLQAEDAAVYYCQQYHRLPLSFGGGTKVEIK

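The parent was found by panning a naive human phage display library on the peptide. Designed CDR sequences, proposed from the first random library and measured here. Group labels follow the data file (Ctrl: baseline library sampled from a position-specific scoring matrix, with some repeated check sequences; Rand: our label for a block that the file lists under HC and that is probably the random mutants of the ten best first-round binders; GP: Gaussian process model; HC: hill climbing; Gen: genetic algorithm; a sequence that several methods proposed may carry one label only). Affinity was read by AlphaSeq, a pooled yeast mating assay with surface-displayed partners. Binding brings cells together so that they mate, and sequencing counts the barcode pairs among the diploids. The ratio of observed to expected reads was calibrated, replicate by replicate, on BCL2-family standards whose Kd was known from biolayer interferometry. There are six technical replicates.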

Each variant is given by its three light chain CDRs, as the data file delimits them; those of the parent are KSSQSVLYESRNKNSVA, WASTRES, QQYHRLPLS. Variants here have at most six changes. The Kd shown is the geometric mean over detected replicates; a lower Kd is a better binder. "nd" means that the variant was in the library but no mating with the target was seen in any replicate; the authors take this as a sign of poor binding, and no number exists.

The variant KVSQSKLYESRNKNSVA, QASTRES, QQQHRLPIS [Ctrl] gave nd (0 of 6 replicates; controls 0 of 18).
The variant KSEQGVLYESENKNSVN, GASTRES, QQYHRLPLS [Rand] gave 61 nM (1 of 6 replicates; controls 0 of 18).
The variant KLSQSVLYEDRNKNSVA, NASTRES, QQYHRLPLS [GP_Gen] gave 450 pM (6 of 6 replicates; controls 1 of 18).
The variant KSSQDVLYESRNKNSVA, WASTREA, QQYHRLPLD [Ctrl] gave nd (0 of 6 replicates; controls 0 of 18).
The variant KSSQSVLYDSRKKNSVA, WASTRES, QDYHRLPLS [Ctrl] gave 82 nM (3 of 6 replicates; controls 0 of 18).
The variant KSLQSTLYESRNKNSVA, HASTREQ, QQYHRLPLS [GP_HC] gave 680 pM (6 of 6 replicates; controls 0 of 18).
The variant KSDTSKLYESRNKNSVA, WASTRES, QQYHRLPLS [Ctrl] gave 130 nM (6 of 6 replicates; controls 1 of 18).
The variant KSSQSVLYESRNKNSQA, WASTRES, QQYHRLPLS [Ctrl] gave 15 nM (1 of 6 replicates; controls 0 of 18).
The variant KSLQSHLYESRNKNSVA, HASTRED, QQYHRLPLS [GP_HC] gave 2.7 nM (6 of 6 replicates; controls 2 of 18).
The variant KVSQSVLGESRMKNSVA, DASTRCS, QQYHRLPLE [GP_HC] gave 920 pM (6 of 6 replicates; controls 3 of 18).
The variant KISQSVPYEDRNKNSVA, NASTRES, QQYHRLPLS [GP_Gen] gave 190 nM (2 of 6 replicates; controls 0 of 18).
The variant KVSPSGLYESRNKNSVA, EASTRES, QQYHRLPLS [GP_Gen] gave 440 pM (6 of 6 replicates; controls 1 of 18).
The variant KSSQSVLYESRNKNSVA, WASTRES, QQVHRTPLS [Ctrl] gave nd (0 of 6 replicates; controls 0 of 18).
The variant KWSQSILYESRNKNSVA, SASTRES, QQYHRLPLS [Ctrl] gave 1.3 nM (6 of 6 replicates; controls 1 of 18).
The variant KLSQSVLYESRNKNSVA, NANTRES, QQYHRLPLS [GP_Gen] gave 1.2 nM (6 of 6 replicates; controls 0 of 18).
The variant KLSQSNLYESRNKNSVA, DASTRES, QQYHRLPLS [GP_Gen] gave 950 pM (6 of 6 replicates; controls 0 of 18).
The variant KLSQSVLYEQRNKNNVA, EASTRES, QQYHRLPLS [GP_Gen] gave 370 pM (6 of 6 replicates; controls 0 of 18).
The variant KLQQSVLYESRNKNSVA, NASLRES, QQYHRLPLS [GP_Gen] gave 860 pM (6 of 6 replicates; controls 1 of 18).
The variant KFSNSGLYESRNKNSVA, EASTRES, QQYHRLPLS [GP_HC] gave 840 pM (6 of 6 replicates; controls 1 of 18).
The variant KSSQSVLEESWNKNSVA, NASTRES, QQYHRLPLH [Ctrl] gave 19 nM (6 of 6 replicates; controls 1 of 18).
The variant KLQQSFLYESRNKNSVA, NASTRES, QDYHRLPLS [GP_Gen] gave 1.0 nM (6 of 6 replicates; controls 0 of 18).
The variant KSSGSVLYESREKNSVA, WASTRSS, QQYHRLPLS [Ctrl] gave 95 nM (1 of 6 replicates; controls 0 of 18).
The variant KLVQSVLYESRNKNSVA, DASTRES, QQYHRLPLS [GP_Gen] gave 440 pM (6 of 6 replicates; controls 2 of 18).
The variant KLQQSVLYESRNKNNVA, HASTRED, QQYHRLPLS [GP_HC] gave 1.5 nM (6 of 6 replicates; controls 0 of 18).
The variant HLSDSVLDESRNKNSVA, NASTRES, QQYHRLPLN [GP_HC] gave 3.2 nM (6 of 6 replicates; controls 0 of 18).
The variant KSSMSELYESRNKNSVA, EASTRES, QQYHRLPLS [GP_Gen] gave 1.6 nM (6 of 6 replicates; controls 0 of 18).
The variant ANDQSVLYESRNKNSVA, WASTRES, QQYHRLPLS [Ctrl] gave 26 nM (2 of 6 replicates; controls 0 of 18).
The variant KLQQSHLYESRNKNSVA, NASQRLS, QQYHRLPLS [GP_Gen] gave 2.4 nM (6 of 6 replicates; controls 1 of 18).
The variant KSSQSVLYESINKNSVA, AATTRES, QQYHRLPVS [Ctrl] gave 730 nM (2 of 6 replicates; controls 2 of 18).
The variant KKSQSVLYESRNKNSVA, WASTRES, QQVHRLPLS [Ctrl] gave 240 nM (1 of 6 replicates; controls 0 of 18).
The variant KLSQSVLYESRNKNSVA, NASKRES, QQYHRLPLS [GP_Gen] gave 1.4 nM (6 of 6 replicates; controls 0 of 18).
The variant KSSISYLYESRNVNSVA, EASTREQ, QQYHRLPLS [GP_HC] gave 1.9 nM (6 of 6 replicates; controls 2 of 18).
The variant KLSQSGLYESRNKNSVA, NASTRMS, QQYHRLPLS [GP_Gen] gave 350 pM (6 of 6 replicates; controls 0 of 18).
The variant KFEQSWLYESRNKNSVA, NASTRES, QQYHRLPLS [GP_Gen] gave 380 pM (6 of 6 replicates; controls 1 of 18).
The variant KLSQSVLYESRNSNSVA, NASTRED, QQYHRLPLS [GP_Gen] gave 380 pM (6 of 6 replicates; controls 1 of 18).
The variant KLPQSGLYESRNKNSVA, NASTRLS, QQYHRLPLS [GP_Gen] gave 1.1 nM (6 of 6 replicates; controls 0 of 18).
The variant KVSQSMLYESRNKNSVA, EASTRES, QQYHRLPLS [GP_Gen] gave 720 pM (6 of 6 replicates; controls 0 of 18).
The variant KVSQSVLYESRNWNSVA, EASTRES, QQYHRLPLS [GP_Gen] gave 1.4 nM (6 of 6 replicates; controls 1 of 18).
The variant KAPQSVLYTSRNKASVA, WASTVED, QQYHRLPLS [Ctrl] gave 55 nM (1 of 6 replicates; controls 0 of 18).
The variant KSSQSVLYEGRNVNSVA, WDSTRES, QQYHRIPLS [Ctrl] gave nd (0 of 6 replicates; controls 0 of 18).
The variant KVSQSVLYESRNKNSVA, QASTRES, QQYHRLPLS [Ctrl+GP_Gen] gave 440 pM (12 of 12 replicates; controls 0 of 36).

A sequence measured in both rounds can read differently, since the two assays cover different ranges. The authors averaged sequences with at least three values out of six and counted those with two or fewer as poor binders. Some sequences occur more than once in the pool; their replicates are pooled. Nonspecific signal, from three strains lacking the peptide, appeared in 4% of pairings of all light chain designs, centred on 430 nM (5% of these signals below 38 nM); values are not corrected for it. For each scFv, signals with the empty controls are counted beside the result. Of ten entries with the parent sequence, four were seen in most replicates (averages 2.2 nM to 240 nM), three in one and three in none, so single entries are noisy.

Reference: Li et al. 2023, doi:10.1038/s41467-023-39022-2. File: FLAb, binding data.